Laboratory results from ChEMBL document CHEMBL4007404, “Identification of High-Potency Human TLR8 and Dual TLR7/TLR8 Agonists in Pyrimidine-2,4-diamines” (J Med Chem, 2017).
Active and inactive are the calls of the source. No cut-off for these calls is given here.

Target: T1, Toll-like receptor 8 (Homo sapiens) (UniProt Q9NR97)
T1 sequence (whole entry): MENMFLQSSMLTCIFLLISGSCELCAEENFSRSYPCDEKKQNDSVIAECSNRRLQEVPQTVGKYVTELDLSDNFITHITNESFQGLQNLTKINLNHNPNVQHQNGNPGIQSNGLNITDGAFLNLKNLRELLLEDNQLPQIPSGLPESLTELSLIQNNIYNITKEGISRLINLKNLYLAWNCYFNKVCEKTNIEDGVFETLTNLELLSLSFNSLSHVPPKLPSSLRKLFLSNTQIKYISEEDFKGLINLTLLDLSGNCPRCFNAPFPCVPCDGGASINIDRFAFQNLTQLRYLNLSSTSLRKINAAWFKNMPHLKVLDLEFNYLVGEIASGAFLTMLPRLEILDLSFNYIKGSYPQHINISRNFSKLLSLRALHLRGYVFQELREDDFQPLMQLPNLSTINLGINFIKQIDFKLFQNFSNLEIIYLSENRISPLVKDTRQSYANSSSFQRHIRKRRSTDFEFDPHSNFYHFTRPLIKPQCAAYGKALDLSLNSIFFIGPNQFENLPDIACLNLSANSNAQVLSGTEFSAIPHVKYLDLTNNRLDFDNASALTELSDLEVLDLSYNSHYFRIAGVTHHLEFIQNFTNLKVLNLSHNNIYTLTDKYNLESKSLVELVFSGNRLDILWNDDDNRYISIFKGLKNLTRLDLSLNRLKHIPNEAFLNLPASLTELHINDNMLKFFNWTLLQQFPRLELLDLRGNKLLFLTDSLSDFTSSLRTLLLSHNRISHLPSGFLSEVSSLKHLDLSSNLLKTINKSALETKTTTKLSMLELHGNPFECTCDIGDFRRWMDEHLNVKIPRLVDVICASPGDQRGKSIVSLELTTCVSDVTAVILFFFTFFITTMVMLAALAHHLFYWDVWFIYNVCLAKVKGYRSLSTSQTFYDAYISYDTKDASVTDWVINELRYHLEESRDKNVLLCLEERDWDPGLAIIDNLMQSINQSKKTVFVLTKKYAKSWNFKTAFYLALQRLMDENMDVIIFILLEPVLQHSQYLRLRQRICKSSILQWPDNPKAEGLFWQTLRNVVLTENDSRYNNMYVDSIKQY
Assay: Agonist activity at TLR8 in human […] conventional dendritic cells assessed as upregulation of CD80 expression after 16 hrs by efluor 780 dye based flow cytometry
In short: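 Human PBMCs were incubated with serial compound dilutions at 37 °C for 16 h, with DMSO controls. Cells were stained with eFluor780 viability dye, then lineage and DC antibodies plus CD80 PE, and fixed. 250,000 gated events were acquired. pDCs were gated as Live Lin⁻ CD123⁺ CD303⁺ CD304⁺ HLA-DR⁺. cDCs were gated as Lin⁻ CD1c⁺ CD141⁻ CD11c⁺ HLA-DR⁺ or Lin⁻ CD141⁺ CD1c⁻ HLA-DR⁺. Median fluorescence intensity was quantified.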

- Activity: Active
SMILES: CCCCCc1cc2c(CCCCCN)cccc2nc1N
